Assay results: patent US9758788B2, “Mutagenesis of plants for overproduction of selective estrogen receptor modulators” (Naprogenix, Inc., priority 2014, dated 2017)

Sequences of proteins named here, by UniProt entry; tags and fusion partners are left off.
UniProt Q01959, whole entry: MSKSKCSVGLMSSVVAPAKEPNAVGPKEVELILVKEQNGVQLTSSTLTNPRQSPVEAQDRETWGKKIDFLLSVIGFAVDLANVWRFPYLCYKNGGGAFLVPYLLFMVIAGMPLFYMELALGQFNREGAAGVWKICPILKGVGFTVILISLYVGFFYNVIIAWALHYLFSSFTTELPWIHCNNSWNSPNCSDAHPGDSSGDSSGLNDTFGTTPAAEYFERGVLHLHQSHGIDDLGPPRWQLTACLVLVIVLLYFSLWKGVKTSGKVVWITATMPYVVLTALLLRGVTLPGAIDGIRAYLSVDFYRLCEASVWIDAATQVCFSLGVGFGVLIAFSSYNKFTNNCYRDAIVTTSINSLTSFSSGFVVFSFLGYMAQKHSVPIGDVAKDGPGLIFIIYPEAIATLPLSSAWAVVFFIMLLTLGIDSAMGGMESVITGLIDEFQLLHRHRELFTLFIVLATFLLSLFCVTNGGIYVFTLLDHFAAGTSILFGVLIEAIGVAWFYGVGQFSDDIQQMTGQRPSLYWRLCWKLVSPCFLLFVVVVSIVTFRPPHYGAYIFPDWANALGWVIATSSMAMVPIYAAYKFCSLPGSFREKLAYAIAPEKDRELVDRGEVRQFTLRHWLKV

Biological target: T1, hDAT (Homo sapiens, UniProt Q01959)
T1 construct: The full-length hDAT cDNA was sub-cloned into pKYLX80 vector; expressed in transfected cells; host or cells: Lobelia cardinalis hairy roots (A. rhizogenes R1000, modified pCambia1301, 35S promoter)
Test: [3H]-GBR12935 saturation binding to transgenic hDAT hairy root cultures

`c1ccc(CCCN2CCN(CCOC(c3ccccc3)c3ccccc3)CC2)cc1` [[^3H]-GBR12935] gave a Bmax of 1.04 ± 0.9 pmol/mg membrane protein.
